Data from US7605163B2, “Benzoyl-piperazine derivatives” (Hoffmann-La Roche Inc., priority 2003, dated 2009).

Sequences of proteins named here, by UniProt entry; tags and fusion partners are left off. Residues count along the entry.
UniProt P28571, 1-651 isoform 2: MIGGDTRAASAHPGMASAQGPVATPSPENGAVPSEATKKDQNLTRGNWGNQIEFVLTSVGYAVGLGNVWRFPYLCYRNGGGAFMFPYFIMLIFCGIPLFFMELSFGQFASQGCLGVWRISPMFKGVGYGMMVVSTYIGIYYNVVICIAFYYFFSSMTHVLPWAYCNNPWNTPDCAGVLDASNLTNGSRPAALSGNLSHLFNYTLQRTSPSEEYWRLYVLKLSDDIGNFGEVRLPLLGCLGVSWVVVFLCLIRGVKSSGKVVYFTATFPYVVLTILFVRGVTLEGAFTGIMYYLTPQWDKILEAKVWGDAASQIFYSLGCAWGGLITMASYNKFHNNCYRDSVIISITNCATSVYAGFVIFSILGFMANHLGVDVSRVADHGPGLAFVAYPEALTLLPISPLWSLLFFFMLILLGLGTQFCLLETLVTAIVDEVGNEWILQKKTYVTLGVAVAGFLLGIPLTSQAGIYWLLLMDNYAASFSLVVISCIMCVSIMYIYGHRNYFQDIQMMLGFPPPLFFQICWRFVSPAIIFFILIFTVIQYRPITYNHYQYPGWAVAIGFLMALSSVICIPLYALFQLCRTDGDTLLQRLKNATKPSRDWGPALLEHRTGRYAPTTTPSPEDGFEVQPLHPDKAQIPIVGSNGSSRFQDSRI

Target: mGlyT-1b (Mus musculus, UniProt P28571)
Test: Glycine Uptake Inhibition Assay (mGlyT-1b)
Conditions: [3H]-glycine uptake inhibition at GlyT-1, Flp-in-CHO cells transfected with mGlyT-1b cDNA

IC50: 18 nM
Compound: CC(=O)c1ccc(N2CCN(C(=O)c3cc(S(C)(=O)=O)ccc3OCC(C)(C)C)CC2)c(F)c1
